The record followed here is ChEMBL document CHEMBL1687944, “Purification and inhibition studies with anions and sulfonamides of an α-carbonic anhydrase from the Antarctic seal Leptonychotes weddellii” (Bioorg Med Chem, 2011).

Amino acid sequences for entries named in this document (tags omitted). A change or cut given only in a name is not applied to a line headed by its entry.
UniProt P00915: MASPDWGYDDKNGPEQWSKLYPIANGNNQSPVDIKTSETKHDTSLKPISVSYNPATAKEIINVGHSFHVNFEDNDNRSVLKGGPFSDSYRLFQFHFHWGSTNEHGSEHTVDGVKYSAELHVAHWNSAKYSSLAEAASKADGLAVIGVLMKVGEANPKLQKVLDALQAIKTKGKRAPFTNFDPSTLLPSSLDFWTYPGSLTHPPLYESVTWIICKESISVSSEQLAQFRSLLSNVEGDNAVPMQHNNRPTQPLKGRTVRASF

pKi: −log10 of the molar value.

The target in the assay is Carbonic anhydrase 1 (Homo sapiens, UniProt P00915).

Molecule `[I-].[Na+]` [SODIUM IODIDE] gave a negative logarithm of the Ki (pKi) of 3.52.
